Measurements published in patent US10583123B2, “Method for the treatment of ATG4-related disorders” (National Tsing Hua University, priority 2017, dated 2020).

Chains of the proteins cited; added tags and fusions are not shown. Residues count along the entry.
UniProt P29466, 317-404: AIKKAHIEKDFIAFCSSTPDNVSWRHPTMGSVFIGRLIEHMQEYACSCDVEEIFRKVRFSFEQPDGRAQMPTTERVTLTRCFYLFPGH
UniProt P29466, 120-297: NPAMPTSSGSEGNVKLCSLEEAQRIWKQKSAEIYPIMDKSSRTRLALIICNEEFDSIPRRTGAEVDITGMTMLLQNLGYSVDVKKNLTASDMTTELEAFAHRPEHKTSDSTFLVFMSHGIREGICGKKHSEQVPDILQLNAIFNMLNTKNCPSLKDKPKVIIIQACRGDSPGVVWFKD
UniProt P42574, 29-175: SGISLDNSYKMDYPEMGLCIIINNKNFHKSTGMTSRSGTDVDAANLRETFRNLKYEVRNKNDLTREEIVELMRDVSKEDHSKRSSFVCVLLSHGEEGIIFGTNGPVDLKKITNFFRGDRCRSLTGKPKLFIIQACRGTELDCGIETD
UniProt P42574, 176-277: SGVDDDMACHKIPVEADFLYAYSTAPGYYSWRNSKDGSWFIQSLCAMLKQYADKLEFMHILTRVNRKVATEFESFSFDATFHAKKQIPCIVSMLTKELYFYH

How the values were obtained:
caspase-1 = caspase-1 (Homo sapiens, UniProt P29466); details: low dose, Tc 2.5 μM, FIG. 3
caspase-3 = caspase-3 (Homo sapiens, UniProt P42574); details: various concentrations of Tc, 0.5 nM caspase-3, 100 μM Ac-DEVD-AFC, FIG. 3
ATG4B = biological target: T1, ATG4B (Homo sapiens, UniProt Q9Y4P1); details: compared with literature inhibitors [24]
T1 sequence (Q9Y4P1 1-393): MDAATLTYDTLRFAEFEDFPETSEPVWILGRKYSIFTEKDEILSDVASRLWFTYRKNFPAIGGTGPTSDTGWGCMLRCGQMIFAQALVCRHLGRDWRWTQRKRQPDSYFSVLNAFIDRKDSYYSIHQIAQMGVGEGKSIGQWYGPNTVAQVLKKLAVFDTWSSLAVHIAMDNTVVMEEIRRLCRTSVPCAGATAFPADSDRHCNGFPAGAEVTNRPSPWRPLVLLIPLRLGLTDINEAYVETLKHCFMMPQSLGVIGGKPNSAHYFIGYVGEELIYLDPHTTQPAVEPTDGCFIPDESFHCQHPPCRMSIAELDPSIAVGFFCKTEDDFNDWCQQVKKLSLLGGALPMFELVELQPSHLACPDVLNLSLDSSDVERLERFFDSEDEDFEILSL

Structure (SMILES): Clc1ccc(C(Cn2ccnc2)OCc2ccsc2Cl)c(Cl)c1 (stereo not drawn) [tioconazole]
- selectivity for ATG4B in caspase-1 counter screen (caspase-1): selectively inhibited ATG4B
- selectivity for ATG4B in caspase-3 counter screen (caspase-3): selectively inhibited ATG4B
- potency relative to currently reported ATG4 inhibitors (ATG4B): approximately 30 fold
